High-throughput results: PubChem, National Center for Advancing Translational Sciences (NCATS)
Shown are actives, neighbours in structure and some others; about 13% of the full set was active somewhere.
LMNA splice mod: LMNA splicing modulation; HeLa LMNA splicing GFP/RFP minigene ratio, 48 h; hit rate 0.01% among 200,000; Potency, µM (titrated, usually from 46.1 µM), for the others: at the top dose ratio change, negative = inhibition, hits mostly inhibitors; active = well fitted inhibition curve with a large enough effect in the signal ratio, with a control signal flat, not every such curve was filed as active; inconclusive = small, poorly fitted or top-dose-only effect, or effect the other way, or a change in a side signal; the % refers to the signal ratio; note: potency is the fitted concentration of half-maximal effect; % is set by controls: 0 for no effect and ±100 for the full control effect
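Read-out is the ratio of GFP to DsRed2 object intensity, acquired by 488 nm laser-scanning cytometry on HeLa lamin A-EGFP minigene reporter cells. Compound incubation 48 hrs at 37 °C in Opti-MEM with 2% FBS; DMSO 0.5% final.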
ALDH1A1 inh: ALDH1A1 (human) enzyme inhibition; hit rate 7.3% among 220,000; Purified ALDH1A1, NADH fluorescence, propionaldehyde substrate; P00352; Potency, µM (highest dose often 75.3 µM), without a hit: top-dose activity, negative = inhibition, usual class: inhibitors; active = well fitted inhibition curve with a large enough effect, not every such curve was filed as active; inconclusive = small, poorly fitted or top-dose-only effect, or another doubt; inactive = no such curve, though single readings can be large or run the other way;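 note: potency is the fitted concentration of half-maximal effect; plate controls were no enzyme wells and a reference inhibitor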
KDM4E inh: blocks human JMJD2E demethylase activity; JMJD2E catalytic domain, FDH-coupled NADH fluorescence (FDH is formaldehyde dehydrogenase); Potency, µM (top dose mostly 57.1 µM), for the others: at the highest dose activity change, negative = inhibition, actives largely listed as inhibitors; hit rate 1.6% among 230,000; B2RXH2; active = well fitted inhibition curve with a large enough effect, not every such curve was filed as active; inconclusive = small, poorly fitted or top-dose-only effect, or another doubt; inactive = no such curve, though single readings can be large or run the other way;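 note: potency is the fitted concentration of half-maximal effect; 0% = wells with enzyme and -100% = buffer wells without enzyme; nearly all actives have a fitted effect of over 50% in size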
Sfp inh: Sfp phosphopantetheinyl transferase inhibition; Q9F4F7; Biochemical Sfp PPTase activity, qHTS; Potency, µM, for the others: max response, negative = inhibition, most hits filed as inhibitors; 310,000 tested, 3.5% active; AID 1490; active = well fitted inhibition curve with a large enough effect; inconclusive = small, poorly fitted or top-dose-only effect, or another doubt; inactive = no such curve, though single readings can be large or run the other way;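 also: the enzyme is Sfp with the accession as filed and its product quenches rhodamine fluorescence; potency is read from the fitted curve at half-maximal effect; 0% = enzyme reaction without inhibitor and -100% = no enzyme wells; top concentration of the series not given in the record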
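After 15 min at room temperature with compound, 15 nM Sfp received 5 uM rhodamine-CoA plus 12.5 uM BHQ-2-ybbR (50 mM Hepes pH 7.6, 10 mM MgCl2). Rate came from the fluorescence difference over 30 min, ex 525/em 598 nm.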
G9a inh: G9a (human) methyltransferase inhibition. hit rate 8.8% among 350,000. AID 504332. Potency, µM (doses to about 102 µM), for inactives: at the highest dose activity, negative = inhibition, actives largely listed as inhibitors. G9a H3K9 monomethylation, AlphaScreen, 2 h; note: potency is the fitted concentration of half-maximal effect; % is set by controls: 0 for no effect and ±100 for the full control effect; nearly all actives have a fitted effect of over 75% in size
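AlphaScreen detection with an anti-monomethyl H3K9 antibody quantified product after a 2 h room-temperature reaction containing 500 nM biotinylated H3K9 peptide, 20 µM SAM and 20 nM enzyme, which had been preincubated 15 min with compound.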
miR-21 reporter: raises the signal of a miR-21 reporter | HeLa miR-21 FLuc reporter, luciferase, 48 h | Potency, µM (doses to about 38.3 µM), for the others: at the highest dose reporter change, positive = more light | 340,000 tested, under 10 active | AID 2288; active = well fitted rising curve with a large enough effect; inconclusive = small, poorly fitted or top-dose-only effect; inactive = no such curve, though single readings can be large or run the other way;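 also: % of control where 0% means no effect; miR-21 action dims this reporter so a rising signal means less miR-21 action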
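HeLa cells endogenously expressing miR-21, stably carrying CMV-driven firefly luciferase with a downstream miR-21 binding site, 2000 cells/well. Titrations up to approximately 40 uM, 48 hours; luciferase luminescence read.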
* marks the source's active call; other numbers are inactive results; ? = inconclusive; · = not tested or not shown; [ ] = dose if it differs, or a comment. Unless noted, calls come from the whole dose curve; as a rule, active = well fitted curve in the direction sought with a large enough effect; inconclusive = small, poorly fitted or top-dose-only effect, or another doubt; inactive = no such curve, though single readings can be large; an effect the other way counts as inactive or inconclusive.

Abbreviations – A = LMNA splice mod; B = ALDH1A1 inh; C = KDM4E inh; D = Sfp inh; E = G9a inh; F = miR-21 reporter
[1] CC(=O)Cn1nnc2sc(-c3ccccc3)cc2c1=O
  A = 9%[46 µM]	B = ?	C = ?	D = 12%	E = 8%[59 µM]	F = -58%
[2] CN1CN(C)c2cccc3cccc1c23
  A = -14%	B = ?	C = ?	D = -1%	E = 1.4µM*	F = 0%
[3] COc1ccc(S(=O)(=O)n2c([N+](=O)[O-])cnc2C)cc1OC
  A = ·	B = ·	C = ·	D = 10%	E = 56µM*	F = 1%
[4] COc1ccc(C)cc1S(=O)(=O)n1c([N+](=O)[O-])cnc1C
  A = ·	B = ·	C = ·	D = -11%	E = ?	F = 1%
[5] CCc1noc(C)c1C(=O)N1CCN(S(=O)(=O)c2c(C)c(C)cc(C)c2C)CC1
  A = ·	B = ·	C = ·	D = ·	E = 0%	F = ·
[6] CCOC(=O)c1cc(NC(=O)c2ccc(F)cc2)c(=O)n2c1oc1ccc(Cl)cc12
  A = ·	B = ·	C = ·	D = ·	E = 46%[59 µM]	F = -10%
[7] N#Cc1cc(NC(=O)c2ccc(F)cc2)c(=O)n2c1[nH]c1ccccc12
  A = ?	B = 0%	C = ?	D = -15%	E = 3.5µM*	F = 1%
[8] O=C(NCc1ccccc1Cl)c1ccc2c(c1)ncn2-c1cccc(F)c1
  A = 4%[46 µM]	B = ·	C = ·	D = ·	E = -6%[59 µM]	F = -17%
[9] O=C(NC(=S)Nc1nc2ccc(F)cc2s1)c1ccco1
  A = ·	B = -6%	C = -6%	D = 56µM*	E = 0%	F = -40%
[10] CS(=O)(=O)c1ccc2nc(NC(=O)c3ccco3)sc2c1
  A = -17%	B = 7%	C = -14%	D = 2%	E = ?	F = -8%
[11] Cc1nc(NC(=S)NC(=O)c2ccco2)sc1C(=O)N(C)C
  A = ·	B = ·	C = ·	D = 22µM*	E = 40µM*	F = -31%
[12] COC(=O)c1nn(-c2ccc(OC)cc2)ccc1=O
  A = ·	B = ·	C = ·	D = 4%	E = 20%	F = -3%
[13] CCCCN(C)C(=O)CSc1nc2ccccc2nc1Cc1ccc(C)cc1
  A = -7%[46 µM]	B = ·	C = ·	D = ·	E = 18%[59 µM]	F = 20%
[14] Nc1sc(-c2ccccc2)c(Cc2ccccc2)c1C(=O)O
  A = ?	B = 10µM*	C = -12%	D = -8%	E = 50µM*	F = 5%
[15] Cc1ccc(NC(=O)C2CCC(CNS(=O)(=O)c3ccc4c(c3)CCCC(=O)N4)CC2)cc1F (stereo not given)
  A = ·	B = ·	C = ·	D = ·	E = 6%[59 µM]	F = 16%
[16] Cc1ccc(NC(=O)CSc2nn(-c3ccc(Cl)cc3)c(=S)s2)cc1S(=O)(=O)N(C)C
  A = ?	B = 14µM*	C = -12%	D = ?	E = -4%[59 µM]	F = -1%
[17] CNc1ncnc2c1cnn2-c1ccc(C)c(C)c1
  A = ?	B = ·	C = ·	D = ·	E = -5%[59 µM]	F = -53%
[18] COC(=O)C1=C(C)N(C)C(=O)NC1c1c(OC)ccc2ccccc12 (stereo not given)
  A = ·	B = ·	C = ·	D = 14%	E = ?	F = 0%
[19] COc1ccc2ccccc2c1C1CC(=O)N2CN(Cc3ccco3)CSC2=C1C#N (stereo not given)
  A = ?	B = 22µM*	C = -11%	D = 5.6µM*	E = 0.56µM*	F = -8%
[20] COc1ccc(C2CC(=O)N3CN(C4CCCCC4)CSC3=C2C#N)c(OC)c1 (stereo not given)
  A = ·	B = ·	C = ·	D = ·	E = 2.5µM*	F = -2%
[21] COc1ccccc1N1CCN(Cc2ccco2)CC1
  A = 14%	B = -9%	C = -18%	D = -24%	E = ?	F = -17%
[22] N#CC1=C2SCN(Cc3ccco3)CN2C(=O)CC1c1ccc(Cl)cc1 (stereo not given)
  A = 8%	B = 16µM*	C = ?	D = 2.5µM*	E = 1µM*	F = 0%
[23] COc1ccc(OC)c(C2C(C#N)=C(N)N(N(C)C)C3=C2C(=O)CCC3)c1 (stereo not given)
  A = ·	B = ·	C = ·	D = 12%	E = -39%	F = 3%
[24] COc1ccc2ccccc2c1C1CC(=O)N2CN(C3CCCCC3)CSC2=C1C#N (stereo not given)
  A = 0%	B = 28µM*	C = -9%	D = 13µM*	E = 1.6µM*	F = 0%
[25] O=[N+]([O-])c1cc(-c2nc(-c3ccccc3)no2)ccc1N1CCCC1
  A = ·	B = ·	C = ·	D = ·	E = -32%[59 µM]	F = 4%
[26] COc1ccc(C2CC(=O)N3CN(Cc4ccco4)CSC3=C2C#N)cc1 (stereo not given)
  A = 8%	B = 10µM*	C = -28%	D = 1.4µM*	E = 0.89µM*	F = -4%
[27] COCCOC(=O)C1=C(C)N=C2SCCC(=O)N2C1c1ccc(OCc2ccccc2)c(OC)c1 (stereo not given)
  A = ·	B = ·	C = ·	D = ·	E = 9%[59 µM]	F = -6%
[28] COc1cc(C2CC(=O)N3CN(Cc4ccco4)CSC3=C2C#N)ccc1OCc1ccccc1 (stereo not given)
  A = -3%	B = 7.9µM*	C = ?	D = 3.5µM*	E = 1.3µM*	F = -5%
[29] CSC1=C(C#N)C(c2ccc(C(C)C)cc2)CC(=O)N1 (stereo not given)
  A = -6%	B = ?	C = 1%	D = -2%	E = ?	F = -4%
[30] CC(C)c1ccc(C2CC(=O)N3CN(Cc4ccco4)CSC3=C2C#N)cc1 (stereo not given)
  A = 0%	B = 14µM*	C = -23%	D = 2.2µM*	E = 2.8µM*	F = -2%
[31] Cc1ccccc1OCC(=O)OCC(=O)NCC1CCCO1 (stereo not given)
  A = ·	B = 4%	C = 2%	D = 3%	E = 15%	F = 6%
[32] COC(=O)c1sc2cccc(F)c2c1S(=O)(=O)NCc1ccc(F)cc1
  A = -12%[46 µM]	B = ·	C = ·	D = ·	E = -3%[59 µM]	F = -2%
[33] O=C(CSc1ccc2nc(-c3ccccc3)cn2n1)Nc1cccc(F)c1
  A = -7%[46 µM]	B = ·	C = ·	D = ·	E = -38%[59 µM]	F = -49%
[34] COc1cccc([C@@H]2Oc3ccc(OC)cc3/C(=N/OC[C@@H](C)[C@H](OCc3ccccc3)C(C)C)[C@@H]2O)c1
  A = ·	B = -1%[13.5 µM]	C = ·	D = 20%	E = ·	F = ·
[35] COC(=O)/C=C\c1cc(O)ccc1O
  A = ·	B = ?	C = 32µM*	D = 50µM*	E = ·	F = ·
[36] CCOC(=O)C1CCCN(c2cc(C)nc3c(-c4ccccc4OC)c(C)nn23)C1 (stereo not given)
  A = -7%[46 µM]	B = ·	C = ·	D = ·	E = 6%[59 µM]	F = 4%
[37] NC(=O)c1sc2nc3c(c(-c4ccc(Cl)cc4)c2c1N)CCCC3
  A = 20%	B = ?	C = -18%	D = -23%	E = 11µM*	F = 0%
[38] Nc1c(C(=O)NCc2ccc(Cl)cc2)sc2nc3c(c(C(F)(F)F)c12)CCC3
  A = ?	B = ?	C = 1%	D = -4%	E = 45µM*	F = 0%
[39] COC(=O)c1sc(S(=O)(=O)NCc2cccs2)c(C(=O)OC)c1C
  A = -3%	B = 14µM*	C = -5%	D = 20%	E = -40%	F = -2%
[40] COC(=O)c1sc(S(=O)(=O)NCC(=O)O)c(C(=O)OC)c1C
  A = ·	B = -3%	C = -5%	D = 3%	E = 71µM*	F = 4%
[41] COC(=O)c1sc(S(=O)(=O)NC(C)C(=O)O)c(C(=O)OC)c1C (stereo not given)
  A = 8%[46 µM]	B = 8%	C = -3%	D = -1%	E = ?	F = 2%
[42] COC(=O)c1sc(S(=O)(=O)Nc2c(C)nn(C)c2C)c(C(=O)OC)c1C
  A = ·	B = ·	C = ·	D = ·	E = 56µM*	F = ·
[43] COC(=O)c1sc(S(=O)(=O)NCCC(=O)O)c(C(=O)OC)c1C
  A = ·	B = -4%	C = -23%	D = 5%	E = ?	F = 0%
[44] CCCC[C@H]1CCCO[C@@](C(=O)NCc2ccc(C)o2)(C(F)(F)F)C1
  A = ·	B = ·	C = ·	D = -26%	E = ·	F = ·
[45] CN(C)CCCNc1ncnc2sc(-c3ccccc3)cc12
  A = ·	B = ·	C = ?	D = 56µM*	E = ?	F = -7%
[46] COc1ccc(CNCc2c(O)c(Cl)cc3c(C)c(C)c(=O)oc23)c(OC)c1
  A = ·	B = ·	C = ·	D = -12%	E = -5%	F = -2%
[47] COc1ccc(OCCC(=O)OCC(=O)NCc2ccc(F)cc2)cc1
  A = ?	B = 4%	C = 4%	D = 19%	E = 7%	F = 2%

Full records, quoted from the list:
COC(=O)c1sc2cccc(F)c2c1S(=O)(=O)NCc1ccc(F)cc1 in the list: LMNA splice mod: -12%[46 µM]; ALDH1A1 inh: ·; KDM4E inh: ·; Sfp inh: ·; G9a inh: -3%[59 µM]; miR-21 reporter: -2%
COCCOC(=O)C1=C(C)N=C2SCCC(=O)N2C1c1ccc(OCc2ccccc2)c(OC)c1 (stereo not given) in the list: LMNA splice mod: ·; ALDH1A1 inh: ·; KDM4E inh: ·; Sfp inh: ·; G9a inh: 9%[59 µM]; miR-21 reporter: -6%
